This passage reports IC50 and EC50 results from paper PMC10763754 (Science Advances, 2021).

Sequences of proteins named here, by UniProt entry; tags and fusion partners are left off. A change or cut given only in a name is not applied to a line headed by its entry.
UniProt P49427: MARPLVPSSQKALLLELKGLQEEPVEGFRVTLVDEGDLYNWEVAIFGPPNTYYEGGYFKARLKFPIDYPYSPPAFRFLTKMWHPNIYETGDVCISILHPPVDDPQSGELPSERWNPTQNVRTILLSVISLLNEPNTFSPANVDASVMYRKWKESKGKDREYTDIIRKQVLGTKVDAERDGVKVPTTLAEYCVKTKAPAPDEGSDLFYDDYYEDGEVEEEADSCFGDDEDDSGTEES

For one assay, the target named is CDC34A (Homo sapiens, UniProt P0CG48+P49427). Description: Substrate-independent gel-based in vitro ubiquitination assay. The class given is biochemical.
The next assay has as its target CDC34A-ubiquitin complex (Homo sapiens, UniProt P0CG48+P49427). Put plainly: biochemical. The format is binding. The following applies: TR-FRET EC50, text, figures and Tables S3-S5; mean ± SD (n = 3). For orientation: In TR-FRET formats the signal depends on donor and acceptor labels being close together.

One may read the IC50 as the concentration that gives 50% inhibition. Broadly, the EC50 is the concentration that produces a half-maximal response. Read a low EC50 as a more potent agent. On to `COCC(=O)N[C@@H](Cc1ccc(-c2cc(Cl)cc(Cl)c2)cc1)[C@H](O)[C@@H](O)C(=O)O` [CC0651], for which, at CDC34A, the IC50 amounted to 2.4 µM. On CDC34A-ubiquitin complex, the EC50 was 31 µM.
